Experimental data taken from ChEMBL document CHEMBL1156239, “Synthesis, anticonvulsant and antimicrobial activities of some new 2-acetylnaphthalene derivatives” (Bioorg Med Chem, 2010).

Tested on: Rattus norvegicus
Test: Neurotoxicity in ip dosed Sprague-Dawley rat after 0.5 hrs by rotarod test
Format: toxicity, organism-based
Conditions: in vivo

For `CCCC(CCC)C(=O)O` [VALPROIC ACID], the ED50 was 784 mg/kg.
